Values of other authors, collected in US20120046461A1, “STEROIDAL ANTI-HORMONE HYBRIDS” (Northeastern University, priority 2009, published 2012).

Conditions: in vivo; cited from earlier work

Substance: herceptin: FDA approved mAb for the treatment of metastatic breast cancers that overexpress HER-2
- tumor regression, share of recipients: 7%
